Results from IntAct's records for PubMed 21829704.

B1: Advanced glycosylation end product-specific receptor (Homo sapiens), Q15109 (parent)
chain: MAAGTAVGAWVLVLSLWGAVVGAQNITARIGEPLVLKCKGAPKKPPQRLEWKLNTGRTEAWKVLSPQGGGPWDSVARVLPNGSLFLPAVGIQDEGIFRCQAMNRNGKETKSNYRVRVYQIPGKPEIVDSASELTAGVPNKVGTCVSEGSYPAGTLSWHLDGKPLVPNEKGVSVKEQTRRHPETGLFTLQSELMVTPARGGDPRPTFSCSFSPGLPRHRALRTAPIQPRVWEPVPLEEVQLVVEPEGGAVAPGGTVTLTCEVPAQPSPQIHWMKDGVPLPLPPSPVLILPEIGPQDQGTYSCVATHSSHGPQESRAVSISIIEPGEEGPTAGSVGGSGLGTLALALGILGGLGTAALLIGVILWQRRQRRGEERKAPENQEEEEERAELNQSEEPEAGESSTGGP
partner: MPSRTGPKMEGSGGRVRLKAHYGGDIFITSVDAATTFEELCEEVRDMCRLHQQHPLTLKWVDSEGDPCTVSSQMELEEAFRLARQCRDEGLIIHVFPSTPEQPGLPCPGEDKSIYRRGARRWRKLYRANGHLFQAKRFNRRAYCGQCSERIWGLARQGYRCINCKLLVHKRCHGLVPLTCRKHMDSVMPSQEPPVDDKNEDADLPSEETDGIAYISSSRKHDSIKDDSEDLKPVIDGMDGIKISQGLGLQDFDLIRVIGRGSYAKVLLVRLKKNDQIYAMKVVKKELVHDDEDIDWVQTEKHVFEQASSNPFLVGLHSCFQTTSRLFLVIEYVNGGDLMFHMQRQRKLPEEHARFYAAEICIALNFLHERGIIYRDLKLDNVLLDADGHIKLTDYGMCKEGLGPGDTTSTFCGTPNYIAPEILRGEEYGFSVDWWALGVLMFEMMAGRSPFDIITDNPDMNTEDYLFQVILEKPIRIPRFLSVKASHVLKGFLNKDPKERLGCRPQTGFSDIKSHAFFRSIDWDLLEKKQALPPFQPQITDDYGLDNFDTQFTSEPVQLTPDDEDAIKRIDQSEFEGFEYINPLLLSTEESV

Variants of: B1
Details: with kpcz_human PRKCZ

effect of a mutation on the interaction | Variant
with no effect | MAAGTAVGAWVLVLSLWGAVVGAQNITARIGEPLVLKCKGAPKKPPQRLEWKLNTGRTEAWKVLSPQGGGPWDSVARVLPNGSLFLPAVGIQDEGIFRCQAMNRNGKETKSNYRVRVYQIPGKPEIVDSASELTAGVPNKVGTCVSEGSYPAGTLSWHLDGKPLVPNEKGVSVKEQTRRHPETGLFTLQSELMVTPARGGDPRPTFSCSFSPGLPRHRALRTAPIQPRVWEPVPLEEVQLVVEPEGGAVAPGGTVTLTCEVPAQPSPQIHWMKDGVPLPLPPSPVLILPEIGPQDQGTYSCVATHSSHGPQESRAVSISIIEPGEEGPTAGSVGGSGLGTLALALGILGGLGTAALLIGVILWQRRQRRGEERKAPENQEEEEERAELNQEEEPEAGESSTGGP [S391E]

Variants of: B1
Details: with kpcz_human PRKCZ
Remark: another data set of the same source

effect of a mutation on the interaction | Variant
with no effect | MAAGTAVGAWVLVLSLWGAVVGAQNITARIGEPLVLKCKGAPKKPPQRLEWKLNTGRTEAWKVLSPQGGGPWDSVARVLPNGSLFLPAVGIQDEGIFRCQAMNRNGKETKSNYRVRVYQIPGKPEIVDSASELTAGVPNKVGTCVSEGSYPAGTLSWHLDGKPLVPNEKGVSVKEQTRRHPETGLFTLQSELMVTPARGGDPRPTFSCSFSPGLPRHRALRTAPIQPRVWEPVPLEEVQLVVEPEGGAVAPGGTVTLTCEVPAQPSPQIHWMKDGVPLPLPPSPVLILPEIGPQDQGTYSCVATHSSHGPQESRAVSISIIEPGEEGPTAGSVGGSGLGTLALALGILGGLGTAALLIGVILWQRRQRRGEERKAPENQEEEEERAELNQAEEPEAGESSTGGP [S391A]
